Experimental data as given in patent publication US7645778B2, “Heteroaryl compounds as P2Y1 receptor inhibitors” (Bristol-Myers Squibb COmpany, priority 2005, dated 2010).

Chains of the proteins cited; added tags and fusions are not shown. Lines headed by an entry give the natural chain unless they say otherwise; changes in a name come on top.
UniProt P47900: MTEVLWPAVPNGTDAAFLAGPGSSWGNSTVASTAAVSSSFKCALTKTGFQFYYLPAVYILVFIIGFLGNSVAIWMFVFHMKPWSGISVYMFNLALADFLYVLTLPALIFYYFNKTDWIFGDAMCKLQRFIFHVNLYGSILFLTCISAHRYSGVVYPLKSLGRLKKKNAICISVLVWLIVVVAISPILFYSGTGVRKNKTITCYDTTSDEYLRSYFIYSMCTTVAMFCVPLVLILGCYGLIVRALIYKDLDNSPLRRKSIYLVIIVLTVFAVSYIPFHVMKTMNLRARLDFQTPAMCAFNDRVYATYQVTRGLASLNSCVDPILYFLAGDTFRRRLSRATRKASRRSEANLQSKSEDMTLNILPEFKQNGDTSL

Target: T1, cloned human P2Y1 receptors (Homo sapiens, UniProt P47900)
T1 construct: expressed in transfected cells
Assay: P2Y1 membrane binding assay ([33P] 2MeS-ADP displacement)
Settings: radioligand Kd used in the Cheng-Prusoff calculation; read-out: Kd for 2MeS-ADP to the P2Y1 receptor
Description: A membrane binding assay was used to identify inhibitors of [^33P] […] The cDNA clone for human P2Y1 was obtained from Incyte Pharmaceuticals and its sequence confirmed by established techniques (for a compendium of techniques used see Ausubel, F. et al. Current Protocols in Molecular Biology 1995 John Wiley and Sons, NY, N.Y.). The essential coding sequences were subcloned into pCDNA 3.1 (Invitrogen) to produce a P2Y1 expression construct. This construct was then transfected into the human embryonic kidney cell line HEK-293 and stable transfectants selected in Genetcin® (G418 sulfate; Life Technologies). […] Plates were then washed with cold (4° C.) D-PBS twice and cells harvested by scraping into 10 mL D-PBS. Cells were pelleted by centrifugation (1,000 g, 10 min, 4° C.) and the resulting pellet resuspended in Lysis Buffer (10 mM Tris (7.4), 5 mM MgCl2 containing Complete® protease inhibitor cocktail (Roche Cat #1873580) as recommended by the manufacturer). […]
Binding reactions were performed in WGA FlashPlates (PerkinElmer Life Sciences, Cat # SMP105A) in a volume of 200 μL containing ˜45 fmol of P2Y1 receptor (5 μg of total protein), 0.5 nM [^33P] […] Plates were sealed and the residual [^33P] bound to the plate determined by scintillation counting.

Compound `CSc1nc(N)c2ncn([C@@H]3O[C@H](COP(=O)(O)OP(=O)(O)O)[C@@H](O)[C@H]3O)c2n1` [Example 2MeS-ADP, 2MeS-ADP] has a Kd of 1.4 nM.
